Results from patent publication US10683278B2 (JINAN UNIVERSITY, priority 2015, dated 2020).

Test: In vivo pharmacokinetic and bioavailability experiments of rats
Conditions: SD rats; hydrochlorides; in words
Procedure: Pharmacokinetic and bioavailability experiments of rats. SD rats were administered orally (25 mg/kg) and intravenously (2.5 to 5 mg/kg) at a single dose. Animal blood samples were taken at appropriate time points after administration, heparin was added as anticoagulant, and same were centrifuged at 8000 rpm/min for 6 minutes, the supernatant was then taken and stored at −20° C. for HPLC-MS analysis. The proteins in blood samples were precipitated with acetonitrile at 12000 rpm for 10 min, and the supernatant was used for HPCL-MS analysis. Data were fit using DAS2.0 to obtain compartmental model and non-compartmental model parameters, respectively. The oral bioavailability of each compound was calculated according to AUC data.

Compound: CCc1ccc2c(c1)c(=O)c(C(=O)Nc1ccc(Oc3ncnc4cc(OC)c(OC)cc34)c(F)c1)c(C)n2C [TL4800191, N-(4-(6,7-dimethoxyquinazolin-4-yloxy)-3-fluorophenyl)-6-ethyl-1,2-dimethyl-4-oxo-1,4-dihydroquinoline-3-carboxamide]
- pharmacokinetic parameter, overall judgement: appropriate pharmacokinetic parameter
